# scFv variants of Ab-95 (light chain) against a SARS-CoV-2 spike peptide

Target peptide (SARS-CoV-2 spike, HR2 region): PDVDLGDISGINAS

The variants keep the heavy chain, the linker and the frameworks of Ab-95 (scFv order VH, three GGGGS repeats, VL).
VH: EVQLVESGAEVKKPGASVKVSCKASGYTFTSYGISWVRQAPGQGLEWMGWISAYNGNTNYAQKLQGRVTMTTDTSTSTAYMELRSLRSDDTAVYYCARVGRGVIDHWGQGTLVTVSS
VL: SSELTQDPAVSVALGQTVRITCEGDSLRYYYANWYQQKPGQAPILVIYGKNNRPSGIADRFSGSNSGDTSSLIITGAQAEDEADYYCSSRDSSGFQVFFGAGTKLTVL

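Phage display of a naive human antibody library on the peptide gave the parent. AAYL52 was designed without a model: most single CDR substitutions and a random sample of double and triple ones. Affinity was read by AlphaSeq, a pooled yeast mating assay with surface-displayed partners. After mating in shaken culture at 30 °C for 16 h, diploids were selected and their barcode pairs sequenced. Each replicate has its own calibration line, from reference interactions of the BCL2 family. The assay was run in three technical replicates.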

Changes read parent residue, position, new residue, counted from the first residue of the VL shown. Affinities are written as log10 Kd with Kd in nM; a lower number is a better binder. An entry "ND" has no value in the source: the pair was not observed among the diploids in that replicate. This suggests poor binding but is not conclusive. As a blank, each scFv also met three strains without target: over library AAYL52, 28% of these pairings were detected, typically at 3.91 and seldom below 2.90. The control count says in how many pairings with the empty strains this scFv gave a signal, with their mean in brackets.

changes	log10 Kd, replicates	signal with controls
D25K/Y30F	2.93 / 3.22 / 2.47	4/9 (3.43)
P54L/S55V/F98D	4.69 / ND / ND	6/9 (4.27)
A32H/S55C/D91T	ND / ND / 4.16	0/9
E23G/R53L/S93R	2.96 / 2.52 / ND	1/9 (3.65)
D25K/Y29K/S88W	ND / 4.69 / 3.99	2/9 (3.33)
S88I/D91Q/S93L	2.95 / ND / 2.70	4/9 (4.10)
N33I/N51H/D91T	2.83 / 3.90 / 3.76	2/9 (3.90)
S88W/F95C/V97S	2.38 / 2.02 / 2.44	2/9 (3.75)
Y30L/N51F/D91H	ND / 3.02 / ND	1/9 (3.50)
R28L/N51M/R90N	ND / ND / ND	1/9 (4.00)
L27S/R28W/A32G	3.84 / 3.08 / ND	4/9 (3.42)
K50G/P54F/F95N	3.30 / 2.96 / 2.32	2/9 (3.84)
R90V/S92A/G94E	3.93 / 2.55 / 2.78	1/9 (5.47)
N51H/S92D/Q96M	ND / 4.78 / 3.86	2/9 (3.23)
D25W/L27G/K50C	4.56 / 3.63 / 3.99	3/9 (3.96)
E23H/R53V	2.43 / 2.29 / 2.45	0/9
D91Y/F95I/Q96A	4.28 / 4.34 / ND	4/9 (3.52)
K50H/R90W/S93K	4.79 / 3.94 / ND	0/9
D25T/L27I/V97K	3.58 / 3.93 / ND	2/9 (3.56)
K50T/S88W/F98W	3.63 / 2.81 / 2.83	2/9 (4.39)
N33Y/G49T/G94A	ND / ND / ND	0/9
E23C/Y30I/P54I	ND / ND / ND	0/9
G49Y/R90P	4.87 / ND / 4.30	2/9 (3.94)
Y30M/A32W/N33H	ND / ND / ND	3/9 (4.21)
L27R/G49S/V97W	3.98 / ND / ND	4/9 (4.42)
N52A/R53W/P54H	3.99 / ND / ND	5/9 (3.91)
Y31G/S89D/F98K	1.74 / 1.23 / 0.92	0/9
G24K/S26P/D91N	ND / ND / ND	0/9
E23I/P54A/F98Y	2.34 / 1.77 / 1.50	4/9 (3.71)
Y29H/R53V	2.46 / 2.41 / 1.91	5/9 (3.88)
Y30T/Y31W/N51D	1.82 / 1.67 / 1.20	4/9 (3.81)
S26F/Y29W/P54V	2.23 / 1.56 / 1.28	5/9 (3.93)
Y31C/D91F	3.03 / 2.78 / 3.37	4/9 (4.47)
S26D/N33E/F98P	ND / 4.00 / 3.35	2/9 (3.43)
E23N/D25P/Y29I	2.77 / 2.69 / 2.57	0/9
R53H/V97A	2.69 / 2.83 / 2.96	2/9 (3.16)
R28Q/N52P/V97G	ND / ND / ND	0/9
Y30L/N51C/N52W	ND / 3.47 / ND	2/9 (4.85)
S26P/K50D/N51G	2.26 / 2.47 / 2.36	8/9 (4.27)
L27T/Y31P/F98D	2.15 / 2.41 / 1.57	2/9 (3.95)

A selection of 5 entries from above:

changes,"log10 Kd, replicates",signal with controls
Y30L/N51C/N52W,ND / 3.47 / ND,2/9 (4.85)
L27S/R28W/A32G,3.84 / 3.08 / ND,4/9 (3.42)
N33Y/G49T/G94A,ND / ND / ND,0/9
S88W/F95C/V97S,2.38 / 2.02 / 2.44,2/9 (3.75)
S26F/Y29W/P54V,2.23 / 1.56 / 1.28,5/9 (3.93)

From the AlphaSeq antibody data of Engelhart et al. 2022 (doi:10.1038/s41597-022-01779-4), copy in the FLAb collection.